Source: article PMC3253046 (Chinese Medicine, 2011)
Like-named read-outs stand apart in the source and are kept apart here.

Assay: Partition coefficients (octanol/aqueous)
Type: physicochemical
Settings: read-out: partition coefficient D (LogD, octanol/aqueous)

SMILES: O=c1c(-c2ccc(O)cc2)coc2c([C@@H]3O[C@H](CO)[C@@H](O)[C@H](O)[C@H]3O)c(O)ccc12 [Puerarin, puerarin]
- logD at 24 h (pH 6.8, 24 hours equilibration): -0.42 ± 0.15
- logD at 24 h (pH 7.4, pH7.4, 24 hours equilibration): 0.06 ± 0.02
